The values that follow come from patent US12509459B2, “Inhibitors of NLRP3 inflammasome” (BioAge Labs, Inc., priority 2024, dated 2025).

Sequences of proteins named here, by UniProt entry; tags and fusion partners are left off.
UniProt Q96P20, whole entry: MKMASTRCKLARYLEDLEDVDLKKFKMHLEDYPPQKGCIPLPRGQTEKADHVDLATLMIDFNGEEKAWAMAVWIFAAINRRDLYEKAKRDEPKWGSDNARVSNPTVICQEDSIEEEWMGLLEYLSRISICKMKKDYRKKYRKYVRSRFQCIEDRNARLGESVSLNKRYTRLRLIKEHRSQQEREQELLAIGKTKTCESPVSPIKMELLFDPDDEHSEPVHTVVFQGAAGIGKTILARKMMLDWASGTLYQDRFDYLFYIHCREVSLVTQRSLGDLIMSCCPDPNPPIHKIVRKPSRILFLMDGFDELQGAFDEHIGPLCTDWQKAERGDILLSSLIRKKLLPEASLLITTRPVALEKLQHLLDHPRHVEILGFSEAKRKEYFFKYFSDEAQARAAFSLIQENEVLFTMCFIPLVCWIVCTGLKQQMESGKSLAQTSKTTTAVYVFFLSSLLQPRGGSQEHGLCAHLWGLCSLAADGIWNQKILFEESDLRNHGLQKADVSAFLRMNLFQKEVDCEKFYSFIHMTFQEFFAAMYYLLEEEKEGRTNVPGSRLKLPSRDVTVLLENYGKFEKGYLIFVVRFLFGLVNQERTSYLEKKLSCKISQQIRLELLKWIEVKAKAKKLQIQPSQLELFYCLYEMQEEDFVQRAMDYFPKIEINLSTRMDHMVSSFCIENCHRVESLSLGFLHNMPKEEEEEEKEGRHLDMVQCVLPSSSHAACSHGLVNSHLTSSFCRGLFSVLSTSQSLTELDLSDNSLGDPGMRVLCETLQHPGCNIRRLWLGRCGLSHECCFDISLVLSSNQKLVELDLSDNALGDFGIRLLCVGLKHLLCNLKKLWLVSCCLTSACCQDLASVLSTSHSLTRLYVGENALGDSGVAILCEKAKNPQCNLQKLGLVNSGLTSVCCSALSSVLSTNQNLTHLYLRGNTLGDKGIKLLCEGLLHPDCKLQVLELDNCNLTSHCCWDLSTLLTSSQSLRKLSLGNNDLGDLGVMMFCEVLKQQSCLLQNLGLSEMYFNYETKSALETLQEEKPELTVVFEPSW

One may read the IC50 as the concentration that gives 50% inhibition.

This assay deals with NLRP3 (Homo sapiens, UniProt Q96P20). Briefly: THP-1 cell-based NLRP3 activation assay. To be noted: PMA-differentiated THP-1 cells, LPS 100 ng/mL then 10 μM nigericin.

In the case of `CCOc1cc(C(=O)N(C)[C@@H](c2cnc(C)c3cn[nH]c23)[C@H](C)O)ccc1-c1cccc(Cl)c1`, the IC50 was < 100 nM.
